From US9890152B2 (Genentech, Inc., priority 2012, dated 2018)

Chains of the proteins cited; added tags and fusions are not shown. Residues count along the entry.
UniProt P00533, 25-1210 T790M/L858R limits assumed: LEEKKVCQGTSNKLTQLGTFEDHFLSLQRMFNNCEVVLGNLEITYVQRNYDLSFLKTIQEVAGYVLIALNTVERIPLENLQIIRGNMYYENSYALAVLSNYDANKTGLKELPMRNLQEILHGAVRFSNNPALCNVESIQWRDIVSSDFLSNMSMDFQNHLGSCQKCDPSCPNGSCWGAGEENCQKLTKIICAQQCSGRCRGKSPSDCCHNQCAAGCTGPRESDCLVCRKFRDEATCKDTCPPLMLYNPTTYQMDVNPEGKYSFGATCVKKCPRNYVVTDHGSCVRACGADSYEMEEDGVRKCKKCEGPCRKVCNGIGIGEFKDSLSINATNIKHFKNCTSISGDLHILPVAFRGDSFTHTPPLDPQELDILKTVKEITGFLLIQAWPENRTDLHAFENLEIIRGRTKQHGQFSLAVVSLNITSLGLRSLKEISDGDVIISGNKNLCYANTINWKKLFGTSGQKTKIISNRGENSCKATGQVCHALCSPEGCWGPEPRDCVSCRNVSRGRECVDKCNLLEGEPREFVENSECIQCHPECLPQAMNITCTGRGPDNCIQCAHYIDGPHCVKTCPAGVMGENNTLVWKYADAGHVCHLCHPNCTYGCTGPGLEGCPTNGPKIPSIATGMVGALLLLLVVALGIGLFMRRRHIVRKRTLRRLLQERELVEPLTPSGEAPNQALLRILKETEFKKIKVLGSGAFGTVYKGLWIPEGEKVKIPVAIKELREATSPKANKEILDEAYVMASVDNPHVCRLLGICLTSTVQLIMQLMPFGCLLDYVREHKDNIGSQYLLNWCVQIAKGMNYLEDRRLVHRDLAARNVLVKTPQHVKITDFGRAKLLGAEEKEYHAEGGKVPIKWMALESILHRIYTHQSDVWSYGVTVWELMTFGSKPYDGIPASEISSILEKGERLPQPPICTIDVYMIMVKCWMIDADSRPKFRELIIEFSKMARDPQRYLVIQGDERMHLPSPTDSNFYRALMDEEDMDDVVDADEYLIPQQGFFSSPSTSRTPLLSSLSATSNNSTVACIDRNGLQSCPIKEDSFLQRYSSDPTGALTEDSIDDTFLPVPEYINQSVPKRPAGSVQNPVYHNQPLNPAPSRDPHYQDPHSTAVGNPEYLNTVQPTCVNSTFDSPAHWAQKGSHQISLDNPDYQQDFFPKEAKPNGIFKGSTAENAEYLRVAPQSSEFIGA

These compounds were tested against EGFR T790M L858R (Homo sapiens, UniProt P00533, L858R/T790M) (assay: biochemical). Conditions: EGFR(T790M/L858R) Ki (μM), 5 μM ATP, 30 min, room temperature; apparent Ki (Morrison) converted by Cheng-Prusoff, Km of ATP 1.3 μM.

| Structure (SMILES) | Ki [µM] |
| --- | --- |
| Cc1nc2cnc(Nc3ccnc(NCC(O)C(N)=O)n3)cc2n1C(C)C (centres unmarked) [Example 301, 2-Hydroxy-3-[4-(1-isopropyl-2-methyl-1H-imidazo[4,5-c]pyridin-6-ylamino)pyrimidin-2-ylamino]propionamide] | 0.325 |
| CC(C)n1c(CO)nc2cnc(Nc3ccnc(C4CCOCC4)n3)cc21 [Example 574, {1-Isopropyl-6-[2-(tetrahydropyran-4-yl)pyrimidin-4-ylamino]-1H-imidazo[4,5-c]pyridin-2-yl}methanol] | 0.65 |
| Cc1nc2cnc(Nc3ccnc(-n4nccn4)n3)cc2n1C(C)C [Example 367, N-(2-(2H-1,2,3-triazol-2-yl)pyrimidin-4-yl)-1-isopropyl-2-methyl-1H-imidazo[4,5-c]pyridine-6-amine] | 0.433 |
| CC(C)n1cnc2cnc(Nc3ccnc(N4CCN5CCCCC5C4)n3)cc21 (centres unmarked) [Example 170] | 0.229 |
| Cc1nc2cnc(Nc3ccnc(-c4cnn(C5CN(CC(F)(F)F)C5)c4)n3)cc2n1C(C)C [Example 414, 1-isopropyl-2-methyl-N-(2-(1-(1-(2,2,2-trifluoroethyl)azetidin-3-yl)-1H-pyrazol-4-yl)pyrimidin-4-yl)-1H-imidazo[4,5-c] pyridin-6-amine] | 0.19 |
| CNC(=O)C1(C)CN(c2nccc(Nc3cc4c(cn3)ncn4C(C)C)n2)CCO1 (centres unmarked) [Example 179] | 0.164 |
| CC(C)n1cnc2cnc(Nc3ccnc(N4CCc5[nH]ncc5C4)n3)cc21 [Example 12, (1-Isopropyl-1H-imidazo[4,5-c]pyridin-6-yl)-[2-(1,4,6,7-tetrahydropyrazolo[4,3-c]pyridin-5-yl)pyrimidin-4-yl]amine] | 0.0445 |
| COCCC(C)n1c(C)nc2cnc(Nc3ccnc(N4CCC(OC)CC4)n3)cc21 (centres unmarked) [Example 491, [1-(3-Methoxy-1-methylpropyl)-2-methyl-1H-imidazo[4,5-c]pyridin-6-yl]-[2-(4-methoxypiperidin-1-yl)pyrimidin-4-yl]amine] | 0.0692 |
| CCn1cnc2cnc(Nc3ccnc(N4CCC(OC)CC4)n3)cc21 [Example 20, (1-Ethyl-1H-imidazo[4,5-c]pyridin-6-yl)-[2-(4-methoxypiperidin-1-yl)pyrimidin-4-yl]amine] | 0.123 |
| CC(C)n1c(CO)nc2cnc(Nc3ccnc(-c4cnn(CC(C)(C)CO)c4)n3)cc21 [Example 470, 3-(4-(4-(2-(hydroxymethyl)-1-isopropyl-1H-imidazo[4,5-c]pyridin-6-ylamino)pyrimidin-2-yl)-1H-pyrazol-1-yl)-2,2-dimethylpropan-1-ol] | 0.0758 |
| Cc1nc2cnc(Nc3ccnc(NCC(F)(F)C(N)=O)n3)cc2n1C(C)C [Example 610, 2,2-Difluoro-3-[4-(1-isopropyl-2-methyl-1H-imidazo[4,5-c]pyridin-6-ylamino)pyrimidin-2-ylamino]propionamide] | 0.0266 |
| O=C1CC(n2c(CO)nc3cnc(Nc4ccnc(-c5cnn(S(=O)(=O)C6CC6)c5)n4)cc32)CN1 (centres unmarked) [Example 694] | 0.993 |
| CC[C@@H](C)n1c([C@@H](C)O)nc2cnc(Nc3ccnc(-c4cnn(S(=O)(=O)CC)c4)n3)cc21 [Example 281, (R)-1-{1-((R)-sec-Butyl)-6-[2-(1-ethanesulfonyl-1H-pyrazol-4-yl)-pyrimidin-4-ylamino]-1H-imidazo[4,5-c]pyridin-2-yl}ethanol] | 0.00474 |
| Cc1nc2cnc(Nc3ccnc(N4CC[C@@H](O)C[C@H]4C)n3)cc2n1C(C)C [Example 601] | 0.0296 |
| Cc1nc2cnc(Nc3ccnc(NCC(C)C(N)=O)n3)cc2n1C(C)C (centres unmarked) [Example 580, 3-[4-(1-Isopropyl-2-methyl-1H-imidazo[4,5-c]pyridin-6-ylamino)pyrimidin-2-ylamino]-2-methylpropionamide] | 0.126 |
| Cc1nc2cnc(Nc3ccnc(OCC(C)(C)S(C)(=O)=O)n3)cc2n1C(C)C [Example 656] | 0.0507 |
| CC(C)n1cnc2cnc(Nc3ccnc(N4CCC(O)CC4)n3)cc21 [Example 13, 1-[4-(1-Isopropyl-1H-imidazo[4,5-c]pyridin-6-ylamino)pyrimidin-2-yl]piperidin-4-ol] | 0.097 |
| COC1CCN(c2nccc(Nc3cc4c(cn3)c(C(=O)NCCN3CCCC3)cn4C(C)C)n2)CC1 [Example 246] | 0.0102 |
| Cc1nc2cnc(Nc3ccnc(N4CC(S(C)(=O)=O)C4)n3)cc2n1C(C)C [Example 548, (1-Isopropyl-2-methyl-1H-imidazo[4,5-c]pyridin-6-yl)-[2-(3-methanesulfonylazetidin-1-yl)pyrimidin-4-yl]amine] | 0.347 |
| CC(C)n1cnc2cnc(Nc3ccnc(Nc4cnn(C)c4)n3)cc21 [Example 40, N^4-(1-Isopropyl-1H-imidazo[4,5-c]pyridin-6-yl)-N^2-(1-methyl-1H-pyrazol-4-yl)pyrimidine-2,4-diamine] | 0.82 |

The next lines start with the values.

| Ki [µM] | Structure (SMILES) |
| --- | --- |
| 0.0314 | Cc1nc2cnc(Nc3ccnc(NC4CCS(=O)(=O)C4)n3)cc2n1C(C)C (single isomer, unassigned) [Example 50, 3-((4-((1-Isopropyl-2-methyl-1H-imidazo[4,5-c]pyridin-6-yl)amino)pyrimidin-2-yl)amino)tetrahydrothiophene 1,1-dioxide] |
| 0.643 | CC(C)n1cnc2cnc(Nc3ccnc(N4CC5CCOC5C4)n3)cc21 (centres unmarked) [Example 212] |
| 0.611 | Cc1nc2cnc(Nc3ccnc(C4CCOC4)n3)cc2n1C(C)C (racemic) [Example 576, (±)-(1-Isopropyl-2-methyl-1H-imidazo[4,5-c]pyridin-6-yl)-[2-(tetrahydrofuran-3-yl)pyrimidin-4-yl]amine] |
| 0.193 | CC(C)n1c(CO)nc2cnc(Nc3ccnc(N4CCCCC4CO)n3)cc21 (centres unmarked) [Example 670] |
| 0.0062 | COC1CCN(c2nccc(Nc3cc4c(cn3)c(C(=O)NCCN3CCNCC3)cn4C(C)C)n2)CC1 [Example 247] |
| 0.101 | CC(C)n1cnc2cnc(Nc3ccnc(N4CCC(C)(C(N)=O)CC4)n3)cc21 [Example 74, 1-(4-(1-isopropyl-1H-imidazo[4,5-c]pyridin-6-ylamino)pyrimidin-2-yl)-4-methylpiperidine-4-carboxamidc] |
| 0.00179 | CCNc1ncc(-c2nccc(Nc3cc4c(cn3)nc(CO)n4C(C)C)n2)s1 [Example 579, {6-[2-(2-Ethylaminothiazol-5-yl)-pyrimidin-4-ylamino]-1-isopropyl-1H-imidazo[4,5-c]pyridin-2-yl}methanol] |
| 1.24 | CC(C)n1cnc2cnc(Nc3ccnc(N4CC(C(=O)N5CCOCC5)C4)n3)cc21 [Example 198] |
| 0.115 | CC(C)n1cnc2cnc(Nc3ccnc(N4CCC5(CC4)CNCCO5)n3)cc21 [Example 230] |
| 0.00139 | CC(C)n1cc(C(=O)NC2CCSCC2)c2cnc(Nc3ccnc(-c4cnn(S(=O)(=O)C5CC5)c4)n3)cc21 [Example 458, 6-(2-(1-(cyclopropylsulfonyl)-1H-pyrazol-4-yl)pyrimidin-4-ylamino)-1-isopropyl-N-(tetrahydro-2H-thiopyran-4-yl)-1H-pyrrolo[3,2-c]pyridine-3-carboxamide] |
| 0.024 | Cc1nc2cnc(Nc3ccnc(NCC(C)(C)C(N)=O)n3)cc2n1C(C)C [Example 113, 3-((4-((1-isopropyl-2-methyl-1H-imidazo[4,5-c]pyridin-6-yl)amino)pyrimidin-2-yl)amino)-2,2-dimethylpropanamide] |
| 0.0325 | CNc1ccc(-c2nccc(Nc3cc4c(cn3)nc(C)n4C(C)C)n2)cn1 [Example 314, (1-Isopropyl-2-methyl-1H-imidazo[4,5-c]pyridin-6-yl)-[2-(6-methylaminopyridin-3-yl)pyrimidin-4-yl]amine] |
| 0.105 | Cc1nc2cnc(Nc3ccnc(-c4cnn(C(C)(C)C(N)=O)c4)n3)cc2n1C(C)C [Example 424, 2-(4-(4-((1-isopropyl-2-methyl-1H-imidazo[4,5-c]pyridin-6-yl)amino)pyrimidin-2-yl)-1H-pyrazol-1-yl)-2-methylpropanamide] |
| 0.0247 | COC1CCN(c2nccc(Nc3cc4c(cn3)c(C(=O)O)cn4C(C)C)n2)CC1 [Example 116, 1-isopropyl-6-((2-(4-methoxypiperidin-1-yl)pyrimidin-4-yl)amino)-1H-pyrrolo[3,2-c]pyridine-3-carboxylic acid] |
| 0.00296 | CO[C@H]1CCN(c2nccc(Nc3cc4c(cn3)c(-c3nn(CCO)cc3C)cn4C(C)C)n2)C[C@H]1F [Example 348, 2-(3-(6-((2-((3R,4S)-3-Fluoro-4-methoxypiperidin-1-yl)pyrimidin-4-yl)amino)-1-isopropyl-1H-pyrrolo[3,2-c]pyridin-3-yl)-4-methyl-1H-pyrazol-1-yl)ethanol] |
| 0.0464 | C[C@H](O)c1nc2cnc(Nc3ccnc(N4CC[C@@H](O)[C@@H](F)C4)n3)cc2n1[C@H](C)C(F)(F)F [Example 689] |
| 0.0016 | CCS(=O)(=O)n1cc(-c2nccc(Nc3cc4c(cn3)c(C(=O)NC3COC3)cn4C(C)C)n2)cn1 [Example 448, 6-(2-(1-(ethylsulfonyl)-1H-pyrazol-4-yl)pyrimidin-4-ylamino)-1-isopropyl-N-(oxetan-3-yl)-1H-pyrrolo[3,2-c]pyridine-3-carboxamide] |
| 0.00421 | Cc1cn[nH]c1-c1cn(C(C)C)c2cc(Nc3ccnc(-c4cnn(S(=O)(=O)C5CC5)c4)n3)ncc12 [Example 346, N-(2-(1-(cyclopropylsulfonyl)-1H-pyrazol-4-yl)pyrimidin-4-yl)-1-isopropyl-3-(4-methyl-1H-pyrazol-5-yl)-1H-pyrrolo[3,2-c]pyridin-6-amine] |
| 0.0769 | COC1(CCCO)CCN(c2nccc(Nc3cc4c(cn3)nc(C)n4C(C)C)n2)CC1 [Example 497, 3-(1-(4-((1-Isopropyl-2-methyl-1H-imidazo[4,5-c]pyridin-6-yl)amino)pyrimidin-2-yl)-4-methoxypiperidin-4-yl)propan-1-ol] |
| 0.00554 | CO[C@@]1(C)CCN(c2nccc(Nc3cc4c(cn3)nc(C)n4C(C)C)n2)C[C@H]1F [Example 673] |
| 0.0116 | Cc1nc2cnc(Nc3ccnc(N4CC[C@H](O)[C@H](F)C4)n3)cc2n1C(C)C (racemic) [Example 505, (±)-3-Fluoro-1-(4-((1-isopropyl-2-methyl-1H-imidazo [4,5-c]pyridin-6-yl)amino)pyrimidin-2-yl)piperidin-4-ol] |
